Source: patent US7183314B1, “Compound for treatment of anxiety and methods of preparation and use thereof” (Naturon Limited, priority 2000, dated 2007)

Tested on: GABAA receptor (GABA-activated current in DRG neurons)
Conditions: rat DRG neuron, whole-cell patch clamp, n=6, FIG. 2

## CN1C(=O)CN=C(c2ccccc2)c2cc(Cl)ccc21 [diazepam, reference compound]
  Effect on GABA-activated current: enhancement of GABA effects
